# Experimental data: the kinase profiling compilation of Christmann-Franck et al. (2016)
# Protein sequences, listed by entry. Tags and fused reporters are not part of them. Lines headed by an entry give the natural chain unless they say otherwise; changes in a name come on top.
# UniProt P27361, whole entry, looked up: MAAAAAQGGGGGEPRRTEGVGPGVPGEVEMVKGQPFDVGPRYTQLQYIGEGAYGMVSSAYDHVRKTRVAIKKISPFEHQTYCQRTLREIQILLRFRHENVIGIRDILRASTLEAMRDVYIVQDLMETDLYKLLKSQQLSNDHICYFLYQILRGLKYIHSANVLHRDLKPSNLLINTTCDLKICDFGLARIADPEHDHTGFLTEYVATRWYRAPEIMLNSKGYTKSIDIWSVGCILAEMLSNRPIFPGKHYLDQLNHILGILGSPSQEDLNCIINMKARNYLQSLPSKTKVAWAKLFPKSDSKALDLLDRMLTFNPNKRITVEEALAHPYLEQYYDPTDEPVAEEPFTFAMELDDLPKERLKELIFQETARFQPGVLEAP
# UniProt O15264: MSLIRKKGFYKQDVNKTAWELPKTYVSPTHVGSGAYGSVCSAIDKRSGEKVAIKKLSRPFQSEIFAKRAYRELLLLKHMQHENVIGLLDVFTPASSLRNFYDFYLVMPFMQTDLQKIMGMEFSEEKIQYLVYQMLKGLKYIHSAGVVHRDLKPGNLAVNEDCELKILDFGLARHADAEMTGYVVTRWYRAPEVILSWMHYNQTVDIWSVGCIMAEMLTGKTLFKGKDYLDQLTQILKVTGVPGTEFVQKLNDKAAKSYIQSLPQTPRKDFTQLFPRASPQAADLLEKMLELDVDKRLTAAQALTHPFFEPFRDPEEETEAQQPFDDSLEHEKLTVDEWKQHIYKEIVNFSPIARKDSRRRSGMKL
# UniProt Q15139: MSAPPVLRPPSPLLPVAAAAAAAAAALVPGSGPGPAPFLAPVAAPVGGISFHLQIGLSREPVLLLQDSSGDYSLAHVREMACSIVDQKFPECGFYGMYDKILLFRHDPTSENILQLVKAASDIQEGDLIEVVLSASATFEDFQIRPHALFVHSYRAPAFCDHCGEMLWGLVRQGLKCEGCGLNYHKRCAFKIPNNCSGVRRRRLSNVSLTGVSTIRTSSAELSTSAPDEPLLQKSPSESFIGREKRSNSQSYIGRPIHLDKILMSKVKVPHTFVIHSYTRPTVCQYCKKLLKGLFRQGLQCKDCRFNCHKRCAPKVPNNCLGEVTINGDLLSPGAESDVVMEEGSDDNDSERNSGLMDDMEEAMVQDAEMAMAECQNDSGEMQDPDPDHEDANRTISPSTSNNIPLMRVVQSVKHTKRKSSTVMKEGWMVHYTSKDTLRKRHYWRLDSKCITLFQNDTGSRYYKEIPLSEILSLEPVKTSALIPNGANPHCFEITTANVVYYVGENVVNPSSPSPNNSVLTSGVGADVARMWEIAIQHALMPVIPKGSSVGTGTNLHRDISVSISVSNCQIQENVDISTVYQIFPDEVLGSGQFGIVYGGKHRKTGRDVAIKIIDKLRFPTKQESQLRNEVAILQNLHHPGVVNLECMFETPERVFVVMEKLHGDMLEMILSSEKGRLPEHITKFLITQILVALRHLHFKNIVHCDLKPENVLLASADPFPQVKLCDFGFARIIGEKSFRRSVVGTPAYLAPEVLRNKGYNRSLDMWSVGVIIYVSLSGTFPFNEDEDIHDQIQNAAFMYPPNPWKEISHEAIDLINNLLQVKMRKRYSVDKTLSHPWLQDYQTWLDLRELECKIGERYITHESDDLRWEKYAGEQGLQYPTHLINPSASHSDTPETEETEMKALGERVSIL
# UniProt P16591: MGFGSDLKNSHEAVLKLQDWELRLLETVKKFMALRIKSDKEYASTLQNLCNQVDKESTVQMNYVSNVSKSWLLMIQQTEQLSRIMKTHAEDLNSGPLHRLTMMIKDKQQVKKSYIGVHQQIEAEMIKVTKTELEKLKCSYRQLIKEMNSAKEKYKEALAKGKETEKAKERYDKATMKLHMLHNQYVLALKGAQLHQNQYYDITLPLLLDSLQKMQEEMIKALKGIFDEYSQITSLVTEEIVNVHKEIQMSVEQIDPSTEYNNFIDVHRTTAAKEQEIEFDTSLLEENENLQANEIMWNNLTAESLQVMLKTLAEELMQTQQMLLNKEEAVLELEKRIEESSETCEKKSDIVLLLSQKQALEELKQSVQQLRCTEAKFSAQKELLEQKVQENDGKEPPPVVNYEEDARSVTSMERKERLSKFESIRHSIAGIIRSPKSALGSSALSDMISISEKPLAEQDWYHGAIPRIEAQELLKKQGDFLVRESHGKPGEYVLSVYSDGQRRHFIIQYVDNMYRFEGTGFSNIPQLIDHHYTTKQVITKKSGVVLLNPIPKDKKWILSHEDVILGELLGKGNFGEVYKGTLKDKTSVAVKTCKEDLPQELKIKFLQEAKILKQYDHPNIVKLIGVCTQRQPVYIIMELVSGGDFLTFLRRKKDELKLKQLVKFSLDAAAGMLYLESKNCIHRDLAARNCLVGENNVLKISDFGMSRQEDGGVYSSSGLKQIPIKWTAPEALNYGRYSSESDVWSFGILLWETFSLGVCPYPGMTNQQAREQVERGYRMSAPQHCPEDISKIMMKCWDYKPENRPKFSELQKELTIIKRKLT
# UniProt O75716, whole entry, looked up: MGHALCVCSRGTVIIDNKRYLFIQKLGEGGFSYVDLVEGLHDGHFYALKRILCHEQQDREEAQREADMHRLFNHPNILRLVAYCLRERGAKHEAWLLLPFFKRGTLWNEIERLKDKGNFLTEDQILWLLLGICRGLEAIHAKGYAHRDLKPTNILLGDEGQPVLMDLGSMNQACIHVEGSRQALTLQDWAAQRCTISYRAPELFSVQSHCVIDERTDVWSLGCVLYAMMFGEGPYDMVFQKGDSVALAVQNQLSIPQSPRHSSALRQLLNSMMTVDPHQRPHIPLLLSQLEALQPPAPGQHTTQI
# UniProt P68400, whole entry, looked up: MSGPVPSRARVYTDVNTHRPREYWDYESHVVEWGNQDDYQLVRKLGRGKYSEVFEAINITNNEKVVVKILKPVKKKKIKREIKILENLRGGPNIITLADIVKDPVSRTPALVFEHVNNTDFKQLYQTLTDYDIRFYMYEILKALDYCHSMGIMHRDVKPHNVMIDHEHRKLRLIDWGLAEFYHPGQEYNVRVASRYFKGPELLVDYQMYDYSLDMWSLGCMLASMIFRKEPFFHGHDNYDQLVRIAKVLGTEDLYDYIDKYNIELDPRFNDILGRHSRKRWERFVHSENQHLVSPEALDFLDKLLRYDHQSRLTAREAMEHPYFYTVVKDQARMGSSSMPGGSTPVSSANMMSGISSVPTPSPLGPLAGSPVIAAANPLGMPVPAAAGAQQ
# UniProt O60285: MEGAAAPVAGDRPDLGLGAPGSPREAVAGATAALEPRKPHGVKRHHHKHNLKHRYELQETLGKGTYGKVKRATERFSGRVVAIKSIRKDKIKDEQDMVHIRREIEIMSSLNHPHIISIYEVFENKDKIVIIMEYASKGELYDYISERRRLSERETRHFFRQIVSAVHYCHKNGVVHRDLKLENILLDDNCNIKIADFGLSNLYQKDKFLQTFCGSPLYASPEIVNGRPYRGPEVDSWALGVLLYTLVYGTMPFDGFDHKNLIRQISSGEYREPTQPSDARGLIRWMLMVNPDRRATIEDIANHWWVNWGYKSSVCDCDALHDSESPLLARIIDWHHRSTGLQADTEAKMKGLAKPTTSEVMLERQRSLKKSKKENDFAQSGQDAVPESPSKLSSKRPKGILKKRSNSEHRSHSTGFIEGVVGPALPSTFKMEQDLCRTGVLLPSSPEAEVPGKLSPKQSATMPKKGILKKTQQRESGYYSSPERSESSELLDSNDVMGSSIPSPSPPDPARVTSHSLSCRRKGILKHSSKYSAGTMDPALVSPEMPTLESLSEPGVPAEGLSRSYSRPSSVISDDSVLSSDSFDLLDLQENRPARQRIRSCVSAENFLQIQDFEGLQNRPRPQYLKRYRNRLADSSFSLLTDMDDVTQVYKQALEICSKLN
# UniProt O15111: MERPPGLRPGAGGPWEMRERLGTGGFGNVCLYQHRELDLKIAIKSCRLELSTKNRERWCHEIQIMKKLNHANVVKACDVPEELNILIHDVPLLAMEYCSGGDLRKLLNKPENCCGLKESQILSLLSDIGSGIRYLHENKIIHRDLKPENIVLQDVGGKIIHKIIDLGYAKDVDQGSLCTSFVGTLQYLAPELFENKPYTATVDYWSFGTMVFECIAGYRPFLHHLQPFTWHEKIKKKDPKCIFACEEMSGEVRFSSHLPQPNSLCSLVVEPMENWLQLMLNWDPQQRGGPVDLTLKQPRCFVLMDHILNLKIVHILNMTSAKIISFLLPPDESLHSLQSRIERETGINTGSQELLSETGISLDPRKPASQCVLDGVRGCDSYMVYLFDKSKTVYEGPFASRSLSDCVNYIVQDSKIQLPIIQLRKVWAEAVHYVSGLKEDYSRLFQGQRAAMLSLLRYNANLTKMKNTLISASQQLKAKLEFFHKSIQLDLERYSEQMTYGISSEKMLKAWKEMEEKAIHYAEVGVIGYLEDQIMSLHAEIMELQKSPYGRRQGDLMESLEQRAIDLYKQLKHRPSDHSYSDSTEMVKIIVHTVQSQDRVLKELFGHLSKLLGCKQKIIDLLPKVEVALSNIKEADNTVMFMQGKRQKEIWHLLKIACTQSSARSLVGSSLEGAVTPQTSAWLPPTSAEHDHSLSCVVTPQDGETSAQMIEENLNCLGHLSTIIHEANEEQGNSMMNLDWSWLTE
# UniProt Q16566: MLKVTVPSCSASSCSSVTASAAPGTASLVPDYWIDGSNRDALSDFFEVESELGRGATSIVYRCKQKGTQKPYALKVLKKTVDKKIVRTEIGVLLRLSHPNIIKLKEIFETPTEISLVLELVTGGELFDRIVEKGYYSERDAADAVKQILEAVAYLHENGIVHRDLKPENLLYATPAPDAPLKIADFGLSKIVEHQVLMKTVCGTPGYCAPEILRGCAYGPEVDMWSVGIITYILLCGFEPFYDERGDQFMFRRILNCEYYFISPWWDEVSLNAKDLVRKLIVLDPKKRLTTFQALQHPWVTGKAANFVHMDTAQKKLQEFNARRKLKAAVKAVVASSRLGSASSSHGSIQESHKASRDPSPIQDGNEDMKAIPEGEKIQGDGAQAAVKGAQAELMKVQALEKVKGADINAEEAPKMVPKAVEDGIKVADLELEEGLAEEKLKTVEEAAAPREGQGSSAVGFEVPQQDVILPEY
# UniProt Q8IU85: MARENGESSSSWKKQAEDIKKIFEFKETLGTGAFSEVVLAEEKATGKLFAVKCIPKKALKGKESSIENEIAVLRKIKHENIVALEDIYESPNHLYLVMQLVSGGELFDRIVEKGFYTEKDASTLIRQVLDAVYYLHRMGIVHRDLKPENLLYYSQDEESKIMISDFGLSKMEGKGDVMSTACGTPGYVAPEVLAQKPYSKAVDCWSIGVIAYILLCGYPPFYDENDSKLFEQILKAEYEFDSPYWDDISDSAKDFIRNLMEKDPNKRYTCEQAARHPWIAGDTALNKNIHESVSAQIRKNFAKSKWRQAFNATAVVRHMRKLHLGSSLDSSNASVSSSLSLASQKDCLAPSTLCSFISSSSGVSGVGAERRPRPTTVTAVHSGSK
# UniProt Q96KB5: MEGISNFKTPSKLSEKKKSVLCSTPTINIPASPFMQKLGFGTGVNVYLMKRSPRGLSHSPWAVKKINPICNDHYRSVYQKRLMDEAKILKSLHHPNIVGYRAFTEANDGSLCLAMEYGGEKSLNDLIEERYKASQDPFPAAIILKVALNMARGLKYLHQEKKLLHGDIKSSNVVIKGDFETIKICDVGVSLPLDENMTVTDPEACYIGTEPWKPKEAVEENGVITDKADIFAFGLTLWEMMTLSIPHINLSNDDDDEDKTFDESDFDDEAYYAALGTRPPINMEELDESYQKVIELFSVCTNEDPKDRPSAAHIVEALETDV
# UniProt P21802, whole entry, looked up: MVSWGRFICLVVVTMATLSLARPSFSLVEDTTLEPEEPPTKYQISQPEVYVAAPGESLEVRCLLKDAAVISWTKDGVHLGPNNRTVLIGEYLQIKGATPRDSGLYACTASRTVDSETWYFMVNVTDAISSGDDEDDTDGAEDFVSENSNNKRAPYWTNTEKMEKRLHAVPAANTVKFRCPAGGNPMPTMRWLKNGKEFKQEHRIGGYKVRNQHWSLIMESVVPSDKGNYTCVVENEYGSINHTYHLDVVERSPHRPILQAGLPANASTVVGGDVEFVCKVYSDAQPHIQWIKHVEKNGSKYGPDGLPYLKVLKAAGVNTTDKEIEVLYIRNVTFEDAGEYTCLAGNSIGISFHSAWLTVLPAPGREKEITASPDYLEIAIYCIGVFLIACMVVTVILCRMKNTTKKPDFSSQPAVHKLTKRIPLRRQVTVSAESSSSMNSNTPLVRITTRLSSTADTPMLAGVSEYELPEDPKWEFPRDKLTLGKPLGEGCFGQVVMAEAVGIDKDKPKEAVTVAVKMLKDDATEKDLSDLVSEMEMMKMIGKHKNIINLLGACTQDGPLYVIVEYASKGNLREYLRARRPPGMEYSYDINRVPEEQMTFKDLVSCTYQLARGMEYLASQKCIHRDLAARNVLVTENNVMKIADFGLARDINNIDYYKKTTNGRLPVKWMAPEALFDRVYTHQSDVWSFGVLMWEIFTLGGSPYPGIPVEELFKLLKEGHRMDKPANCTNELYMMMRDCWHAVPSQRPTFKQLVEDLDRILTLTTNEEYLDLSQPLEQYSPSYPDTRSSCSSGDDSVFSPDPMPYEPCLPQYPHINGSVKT
# Columns and labels:
# Experiment in all cases: radiometric filter-binding kinase assay, Kinase HotSpot
# Conditions in all cases: compound 0.5 µM; ATP 10 µM
# TEC (human) = TEC (human) (UniProt P42680)
# MERTK (human) = MERTK (human) (UniProt Q12866)
# MAPK3 (human) = MAPK3 (human) (UniProt P27361)
# MAPK13 (human) = MAPK13 (human) (UniProt O15264)
# NEK9 (human) = NEK9 (human) (UniProt Q8TD19)
# PDGFRB (human) = PDGFRB (human) (UniProt P09619)
# PRKD1 (human) = PRKD1 (human) (UniProt Q15139)
# AURKA (human) = AURKA (human) (UniProt O14965)
# FER (human) = FER (human) (UniProt P16591)
# PAK2 (human) = PAK2 (human) (UniProt Q13177)
# FGR (human) = FGR (human) (UniProt P09769)
# MLTK (human) = MLTK (human) (UniProt Q9NYL2)
# STK16 (human) = STK16 (human) (UniProt O75716)
# CSNK2A1 (human) = CSNK2A1 (human) (UniProt P68400)
# ACVR1 (human) = ACVR1 (human) (UniProt Q04771)
# ITK (human) = ITK (human) (UniProt Q08881)
# ACVR1B (human) = ACVR1B (human) (UniProt P36896)
# NUAK1 (human) = NUAK1 (human) (UniProt O60285)
# NTRK3 (human) = NTRK3 (human) (UniProt Q16288)
# PRKCB1 (human) = PRKCB1 (human) (UniProt P05771)
# SIK2 (human) = SIK2 (human) (UniProt Q9H0K1)
# ULK1 (human) = ULK1 (human) (UniProt O75385)
# MAPKAPK3 (human) = MAPKAPK3 (human) (UniProt Q16644)
# CHUK (human) = CHUK (human) (UniProt O15111)
# MAP4K4 (human) = MAP4K4 (human) (UniProt O95819)
# CAMK4 (human) = CAMK4 (human) (UniProt Q16566)
# RET (human) = RET (human) (UniProt P07949)
# CAMKK1 (human) = CAMKK1 (human) (UniProt Q8N5S9)
# CAMK1D (human) = CAMK1D (human) (UniProt Q8IU85)
# MST1R (human) = MST1R (human) (UniProt Q04912)
# NEK6 (human) = NEK6 (human) (UniProt Q9HC98)
# RIPK2 (human) = RIPK2 (human) (UniProt O43353)
# BTK (human) = BTK (human) (UniProt Q06187)
# MAP2K2 (human) = MAP2K2 (human) (UniProt P36507)
# MAPK14 (human) = MAPK14 (human) (UniProt Q16539)
# SRPK2 (human) = SRPK2 (human) (UniProt P78362)
# MAP4K2 (human) = MAP4K2 (human) (UniProt Q12851)
# MAP3K5 (human) = MAP3K5 (human) (UniProt Q99683)
# PBK (human) = PBK (human) (UniProt Q96KB5)
# FGFR2 (human) = FGFR2 (human) (UniProt P21802)
# YES1 (human) = YES1 (human) (UniProt P07947)
# MAP3K3 (human) = MAP3K3 (human) (UniProt Q99759)
structure (smiles),measurement,setting,value
O=C1c2ccccc2-[n+]2ccc3c([nH]c4ccccc43)c21,residual activity,TEC (human),108%
same,residual activity,MERTK (human),87.8%
same,residual activity,MAPK3 (human),79.7%
same,residual activity,MAPK13 (human),107%
same,residual activity,NEK9 (human),109%
same,residual activity,PDGFRB (human),88.3%
same,residual activity,PRKD1 (human),99.3%
same,residual activity,AURKA (human),86.6%
same,residual activity,FER (human),93.9%
same,residual activity,PAK2 (human),97%
same,residual activity,FGR (human),93.2%
same,residual activity,MLTK (human),90.4%
same,residual activity,STK16 (human),103%
same,residual activity,CSNK2A1 (human),91.7%
same,residual activity,ACVR1 (human),102%
same,residual activity,ITK (human),101%
same,residual activity,ACVR1B (human),99.9%
same,residual activity,NUAK1 (human),94.3%
same,residual activity,NTRK3 (human),94.1%
same,residual activity,PRKCB1 (human),94.4%
same,residual activity,SIK2 (human),106%
same,residual activity,ULK1 (human),108%
same,residual activity,MAPKAPK3 (human),99.1%
same,residual activity,CHUK (human),82.6%
same,residual activity,MAP4K4 (human),91.9%
same,residual activity,CAMK4 (human),88.3%
same,residual activity,RET (human),102%
same,residual activity,CAMKK1 (human),133%
same,residual activity,CAMK1D (human),83.4%
same,residual activity,MST1R (human),101%
same,residual activity,NEK6 (human),87.8%
same,residual activity,RIPK2 (human),99.4%
same,residual activity,BTK (human),105%
same,residual activity,MAP2K2 (human),91.3%
same,residual activity,MAPK14 (human),90.2%
same,residual activity,SRPK2 (human),82.5%
same,residual activity,MAP4K2 (human),118%
same,residual activity,MAP3K5 (human),91.3%
same,residual activity,PBK (human),94.2%
same,residual activity,FGFR2 (human),100%
same,residual activity,YES1 (human),93.1%
same,residual activity,MAP3K3 (human),121%
COc1cc(OC)c(/C=C2\C(=O)Nc3ccccc32)c(OC)c1,residual activity,TEC (human),134%
same,residual activity,MERTK (human),91.7%
same,residual activity,MAPK3 (human),101%
same,residual activity,MAPK13 (human),99.1%
same,residual activity,NEK9 (human),108%
same,residual activity,PDGFRB (human),85.8%
same,residual activity,PRKD1 (human),98%
same,residual activity,AURKA (human),102%
same,residual activity,FER (human),91.5%
same,residual activity,PAK2 (human),98.8%
same,residual activity,FGR (human),91.8%
same,residual activity,MLTK (human),93.7%
same,residual activity,STK16 (human),96.6%
same,residual activity,CSNK2A1 (human),101%
same,residual activity,ACVR1 (human),110%
same,residual activity,ITK (human),99.7%
same,residual activity,ACVR1B (human),101%
same,residual activity,NUAK1 (human),94.6%
same,residual activity,NTRK3 (human),108%
same,residual activity,PRKCB1 (human),91.8%
same,residual activity,SIK2 (human),106%
same,residual activity,ULK1 (human),91.4%
same,residual activity,MAPKAPK3 (human),99.5%
same,residual activity,CHUK (human),100%
same,residual activity,MAP4K4 (human),66.1%
same,residual activity,CAMK4 (human),97.3%
same,residual activity,RET (human),107%
same,residual activity,CAMKK1 (human),122%
same,residual activity,CAMK1D (human),94.5%
same,residual activity,MST1R (human),98.8%
same,residual activity,NEK6 (human),99.3%
same,residual activity,RIPK2 (human),89%
same,residual activity,BTK (human),105%
same,residual activity,MAP2K2 (human),96.2%
same,residual activity,MAPK14 (human),98%
same,residual activity,SRPK2 (human),97.6%
same,residual activity,MAP4K2 (human),109%
same,residual activity,MAP3K5 (human),100%
same,residual activity,PBK (human),110%
same,residual activity,FGFR2 (human),109%
same,residual activity,YES1 (human),91.7%
same,residual activity,MAP3K3 (human),104%
